# Assay results reported in US20110020252A1, “METHOD OF LONG LASTING HUMAN SKIN TANNING” (priority 2010, published 2011).
# Tested on: human skin
# Assay: Skin tanning with oral Rifampin plus sun/UVR exposure (patient, volunteers, tanning booth users)
# Conditions: patient taking Rifampin, sunbathed 2-3 hours a day for 3 days
compound,measurement,value
CO[C@H]1/C=C/O[C@@]2(C)Oc3c(C)c(O)c4c(O)c(c(/C=N/N5CCN(C)CC5)c(O)c4c3C2=O)NC(=O)/C(C)=C\C=C\[C@H](C)[C@H](O)[C@@H](C)[C@@H](O)[C@@H](C)[C@H](OC(C)=O)[C@@H]1C [Rifampin],duration of tan without fading,> 4 months
same,"tan of extremities, chest and abdomen",tanned bronze brown
